Biological target: dopamine transporter (UniProt P23977)
Format: binding
Design: other: relative to cocaine
Conditions: relative to cocaine

COC(=O)C1C(OC(=O)c2ccccc2)CC2CCC1N2C (stereo not shown) [6 allococaine, allococaine, reference compound]
times less potent than cocaine at the DAT: 60 times

Source: patent publication US6358492B1, “Dopamine transporter imaging ligand” (Research Triangle Institute, priority 1997, dated 2002)
